This is a selection; strong and weak results do not stand in their true shares. Records with an inconclusive call do not appear. Activity calls are given as the source filed them. How the source made its calls, unless noted: active means hit-call score of the fitted dose curve at least 0.9, where 1 is the maximum; inactive means score below 0.9.
Columns and labels:
[1] = CCTE_Deisenroth_5AR_NBTE_acceptor: CCTE's 5alpha-reductase NanoBRET Target Engagement Assay - Autofluorescence Screen, Deisenroth Lab (AID 2284321); conditions: actives raise or lower the signal;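 further: compound fluorescence in the acceptor channel under 460 nm excitation flags autofluorescence artifacts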
Outline: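 Autofluorescence counter-screen: chemicals at an assumed nominal 100 uM in DMSO were scanned in three independent runs with 460 nm excitation. Gain or loss of acceptor signal was fitted bidirectionally against DMSO.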

[2] = test system: SRD5A2 (gene 6716); assay: CCTE_Deisenroth_5AR_NBTE_ratio: CCTE's 5alpha-reductase NanoBRET Target Engagement Assay - Ratio, Deisenroth Lab (AID 2284322); conditions: actives raise or lower the signal
Outline: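 HEK293T transiently expressing SRD5A2-NanoLuc; cells exposed to chemical (8-point, 10 nM - 29.9 uM) for 5 h total, testosterone tracer added for final 2 h. NanoBRET acceptor/donor ratio (650/460 nm), bidirectional fit vs DMSO.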

[3] = test system: SERPINA7 (gene 6906); assay: CCTE_GLTED_hTBG: CCTE's human Thyroxine-binding Globulin (TBG) Inhibition Assay, Great Lakes Toxicology and Ecology Division (GLTED) Lab (AID 2284343; active means hit-call score of the fitted dose curve at least 0.9, where 1 is the maximum;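 further: active chemicals lower fluorescence versus DMSO baseline by displacing probe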)
Outline: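 hTBG + test chem, 2 h; ANSA probe displacement; fluorescence readout ex380/em475; DMSO = neg ctrl/baseline; cell-free.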

[4] = test system: TTR (gene 7276); assay: CCTE_GLTED_hTTR_0.125uM: CCTE's human Transthyretin (hTTR) Inhibition Assay, with 0.125uM TTR, Great Lakes Toxicology and Ecology Division (GLTED) Lab (AID 2284431);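 further: hits lower the fluorescence signal relative to DMSO baseline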
Outline: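 Cell-free displacement of ANSA probe from 0.125uM TTR after 2 h incubation with chemical. Fluorescence read at 380 nm excitation/475 nm emission; loss of signal relative to DMSO indicates T4-site displacement.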

[5] = IUF_NPC1_cytotoxicity_72hr: Cytotoxicity Assessment at 72 hours in the Leibniz Research Institute for Environmental Medicine (IUF) Neural Progenitor Cell Proliferation Assay (NPC1) (AID 2284332; active means hit-call score of the fitted dose curve at least 0.9, where 1 is the maximum;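 further: rising LDH signal means more cytotoxicity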)
Outline: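 Spheres of primary human neural progenitors are plated one per well on day 0 in growth-factor medium and dosed at once. After three days at 37C, supernatant LDH is measured fluorimetrically via resazurin reduction.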

[6] = CCTE_Mundy_HCI_iCellGluta_NOG_NeuronCount: CCTE's Neurite Outgrowth Assay in iCellGluta cells for Neuron Count, Mundy Lab (AID 2284340; active means hit-call score of the fitted dose curve at least 0.9, where 1 is the maximum;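 further: cells fixed about 48 h after compound addition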)
Outline: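 Neuron count read by automated high-content imaging of Hoechst 33342 and betaIII-tubulin/Alexa Fluor-488 labelling in human iPSC glutamatergic neurons. Activity fitted relative to DMSO.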

[7] = CCTE_Mundy_HCI_iCellGluta_NOG_NeuriteCount: CCTE's Neurite Outgrowth Assay in iCellGluta cells for Neurite Count, Mundy Lab (AID 2284342; active means hit-call score of the fitted dose curve at least 0.9, where 1 is the maximum;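 further: chemical exposure about 48 hours starting 2 hours after plating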)
Method: CCTE_Mundy_HCI_iCellGluta_NOG is a multiplexed, cell-based-readout assay that uses iCell GlutaNeurons from FUJIFILM Cellular Dynamics, Inc. (FCDI), human glutamatergic enriched neurons derived from induced pluripotent stem (iPS) cells, with measurements taken at 50.33 hours after chemical dosing in a microplate: 96-well plate.CCTE_Mundy_HCI_iCellGluta_NOG_NeuriteCount is one of four components of the CCTE_Mundy_HCI_iCellGluta_NOG assay. It measures neurite outgrowth related to number of neurites using High Content Imaging of fluorescently labelled markers.Data from the assay component CCTE_Mundy_HCI_iCellGluta_NOG_NeuriteCount was analyzed at the endpoint CCTE_Mundy_HCI_iCellGluta_NOG_NeuriteCount in the positive analysis fitting direction relative to DMSO as the negative control and baseline of activity. Using a type of morphology reporter, loss-of-signal activity can be used to understand developmental effects.
Exposure starts 2 hours post-plating by adding 10 ul of the working solution to 90 ul of media in the wells for a 1/10 dilution. […] A Cellomics ArrayScan VTi HCS Reader is used for automated image acquisition and analysis of neurite outgrowth.

[8] = CCTE_Padilla_ZF_Score.General: CCTE's 144 Hour Post-fertilization zebrafish Assay Score for General Malformation, Padilla Lab (AID 2284411)
Outline: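 Wild-type zebrafish embryos were plated singly at 6-8 hpf in 10% Hanks' and exposed in sealed wells at 26C until rinsed on 5 dpf. At 6 dpf two blinded assessors scored mortality, hatching and malformations by stereomicroscopy; gain-of-signal versus DMSO.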

SMILES: Cc1cc([N+](=O)[O-])cc([N+](=O)[O-])c1O
- outcome [1]: inactive
- AC50 [2]: active: 50 µM
- AC50 [3]: active: 43.7 µM
- AC50 [4]: active: 0.0275 µM

SMILES: CC(C)OP(=S)(OC(C)C)SCCNS(=O)(=O)c1ccccc1
- outcome [1]: inactive
- outcome [2]: inactive
- outcome [5]: inactive
- AC50 [6]: active: 52 µM
- AC50 [7]: active: 28 µM

SMILES: CC(C)OP(=O)(OC(C)C)SCCNS(=O)(=O)c1ccccc1
- outcome [5]: inactive
- outcome [7]: inactive

SMILES: CCCCOP(OCCCC)OCCCC
- AC50 [8]: active: 73.1 µM

SMILES: O=[N+]([O-])c1ccc([N+](=O)[O-])cc1
- outcome [8]: inactive

SMILES: CC(C)CCCCCCCOP(OCCCCCCCC(C)C)Oc1ccccc1
- AC50 [4]: active: 3.61 µM
